Data published in PubChem BioAssay (NCI).
This is a selection; strong and weak results do not stand in their true shares. Some structures have more than one record in an assay (separate samples or runs), and their calls can disagree. Activity calls are given as the source filed them. Rule as the data show it: active = growth inhibition above about 70%; inactive = the rest.

Experiment: NCI Yeast Anticancer Drug Screen. Data for the rad50EPP+ strain (AID 151);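 also: 0% = growth of vehicle-treated control cultures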
Settings: S. cerevisiae rad50 mutant strain, stronger effect = higher value
Procedure: Growth inhibition of yeast strains with defined genetic alterations is measured as a screen for potential anti-cancer activity. Selected strains with alterations in DNA damage repair or cell cycle control were exposed to compounds and growth inhibition was measured relative to vehicle treated controls. The strain used in this assay is rad50EPP+

| SMILES | growth inhibition (at 1.2 µM) | growth inhibition (at 3.7 µM) | growth inhibition (at 11.0 µM) | growth inhibition (at 33.0 µM) | growth inhibition (at 100.0 µM) |
| --- | --- | --- | --- | --- | --- |
| NC(Cc1cnc[nH]1)C(=O)O (stereo not given) | inactive: 0% | inactive: 9% | inactive: 53% | active: 96% | active: 97% |
| CC(C)c1nc(Nc2ccccc2)n(P(=O)(N(C)C)N(C)C)n1 | inactive: -13% | inactive: 16% | inactive: -34% | inactive: -36% | inactive: -24% |
| COc1cccc(C[N+](C)(CCCl)CCCl)c1[N+](=O)[O-] | inactive: 29% | inactive: 42% | inactive: 68% | active: 94% | active: 97% |
| N#Cc1cc([N+](=O)[O-])cc([N+](=O)[O-])c1N | inactive: 14% | inactive: 18% | inactive: 18% | inactive: 32% | inactive: 48% |
| O=C1OC(C(Cl)(Cl)Cl)Sc2ccccc21 (stereo not given) | inactive: 1% | inactive: 6% | inactive: 13% | inactive: 46% | inactive: 59% |
| O=[N+]([O-])c1cc([N+](=O)[O-])c2nsnc2c1 | inactive: 31% | inactive: 68% | active: 99% | active: 99% | active: 99% |
| FC1(F)SC2C(C1(F)F)C1(Cl)C(Cl)=C(Cl)C2(Cl)C1(Cl)Cl (stereo not given) | inactive: 39% | active: 89% | active: 99% | active: 99% | active: 98% |
| CN(C)P(=O)(N(C)C)n1c(Nc2ccccc2)nnc1-c1ccccc1 | inactive: -30% | inactive: -16% | inactive: -21% | inactive: -4% | inactive: -13% |
